# Only a part is listed here, and it is no random draw. Calls of active or inactive are those of the source.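 Rule for the calls: active = GFP response relative to DMSO above a set limit, near the screen mean plus 3 SD (cut at about 150% in these data); inconclusive = Fewer than 70 cells measured for a yeast strain; inactive = the rest.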
# Assay: modulators of CIT2-GFP expression in yeast, primary screen, S. cerevisiae, GFP fusion, multiplex flow cytometry, MLPCN library (AID 2029);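 note: ratio of well median GFP fluorescence to mean of DMSO wells on the plate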
# Details: S. cerevisiae CIT2-GFP strain, 3 h, at 10 µM, stronger effect = higher value, 100 means same as DMSO wells
row,SMILES,GFP response vs DMSO
1,O=P(Nc1nccs1)(c1ccccc1)c1ccccc1,inactive: 104%
2,CC(C)C(=O)NC(Sc1ccccc1)C(Cl)(Cl)Cl (stereo not given),inactive: 87.3%
3,c1nnnn1CCn1cnnn1,inactive: 94.9%
4,O=[As](O)(c1ccccc1)c1ccc(O)cc1,inactive: 87.7%
5,O=[N+]([O-])c1ncn(CCn2cnc([N+](=O)[O-])n2)n1,inactive: 97%
6,CC(=O)NC(SC(=S)N(C)C)C(Cl)(Cl)Cl (stereo not given),inactive: 95.3%
7,O=[N+]([O-])c1ccc(O)c(/C=N/Nc2ccc([N+](=O)[O-])cc2[N+](=O)[O-])c1,inactive: 101%
8,O=C(OC1CN2CCC1CC2)c1cccc(Cl)c1 (stereo not given),inactive: 105%
9,Nc1ccc([As](=O)(O)c2ccc([N+](=O)[O-])cc2)cc1,inactive: 102%
10,C(Cc1nn[nH]n1)Cc1nn[nH]n1,inactive: 100%
11,CN(C)C1(CNC(=O)c2ccc(Cl)c(S(N)(=O)=O)c2)CCCCC1,inactive: 101%
12,O=P(Nc1ccccn1)(c1ccc(Br)cc1)c1ccc(Br)cc1,inactive: 98.1%
13,C[C@H]1OP(=O)(Oc2ccccc2)[C@H](O)[C@H](O)[C@H]1N=[N+]=[N-] (stereo not given in full),inactive: 93.9%
14,O=P(Nc1nc2ccccc2s1)(c1ccccc1)c1ccccc1,inactive: 120%
15,CCC(=O)N1C2C3N(C(=O)CC)C1C1N(C(=O)CC)C(C(N1C(=O)CC)N3C(=O)CC)N2C(=O)CC,inactive: 106%
16,O=C(OC1CN2CCC1CC2)c1ccccc1 (stereo not given),inactive: 95.8%
17,CC(=O)NC(SC(=S)N(CC(C)C)CC(C)C)C(Cl)(Cl)Cl (stereo not given),inactive: 85%
18,COC(=O)c1cc2c(s1)N=C(c1ccccc1)N(C)P2(=O)N1CCOCC1 (stereo not given),inactive: 115%
19,CN(C)C(=O)Oc1noc2ccccc12,inactive: 83.2%
20,Cc1ccccc1OP(=O)(Nc1ccccn1)Oc1ccccc1C,inactive: 99.5%
21,CC(NC(=O)COC(=O)C(O)(c1ccccc1)c1ccccc1)c1ccccc1 (stereo not given),inactive: 89.5%
22,CCOC(=O)NC(Sc1ccccc1)C(Cl)(Cl)Cl (stereo not given),inactive: 98%
23,Cc1ccc(NP(=O)(Oc2cccc(C)c2)Oc2cccc(C)c2)nc1,inactive: 97.7%
24,c1ccc(-c2nn[nH]n2)c(-c2nn[nH]n2)c1,inactive: 113%
25,O=C(NC1CCS(=O)(=O)C1)NP(=S)(Oc1ccccc1)Oc1ccccc1 (stereo not given),inactive: 87%

row,SMILES,GFP response vs DMSO
1,CCNC(=S)/N=C(\N)N[N+](=O)[O-],inactive: 95.6%
2,C[C@@H]1C=CCP(=O)(Oc2ccccc2)O1 (stereo not given in full),inactive: 77.2%
3,C[C@H]1OP(=O)(Oc2ccccc2)C[C@@H]2O[C@@H]21 (stereo not given in full),inactive: 97.6%
4,Cc1ccccc1CN(C)C(=O)COC(=O)C(O)(c1ccccc1)c1ccccc1,inactive: 95.8%
5,CC(=O)c1ccc(N2CC2c2ccncc2)cc1 (stereo not given),inactive: 99.2%
6,CC(=O)Nc1ccc(Oc2c([N+](=O)[O-])cc([N+](=O)[O-])cc2[N+](=O)[O-])cc1,inactive: 95.1%
7,CC(=O)Nc1ccc([As](=O)(O)O)c(O)c1,inactive: 92.7%
8,CCOc1ccc(C2=NCC(CBr)S2)cc1 (stereo not given),inactive: 102%
9,O=P1(Nc2nc3ccc(Cl)cc3s2)COc2ccccc2O1 (stereo not given),inactive: 97.5%
10,CC(C)(C)C(=O)NC(Sc1ccccc1)C(Cl)(Cl)Cl (stereo not given),inactive: 88.8%
11,Cc1c2non([O-])c-2c(C)[n+](=O)[n+]1[O-],inactive: 93.2%
12,O=C(NC(Sc1ccncn1)C(Cl)(Cl)Cl)c1ccccc1 (stereo not given),inactive: 102%
13,Oc1ccccc1CNc1ccccn1,inactive: 93.8%
14,CC(C)CC(=O)NC(Sc1ccc(Cl)cc1)C(Cl)(Cl)Cl (stereo not given),inactive: 96.7%
15,Nc1cc(N)c2nonc2c1[N+](=O)[O-],inactive: 93.9%
16,Cc1ccc(N/C(=N/P(=O)(N2CCOCC2)N2CCOCC2)N2CCOCC2)cc1,inactive: 97.3%
17,CN(C(=O)Cc1ccc(Cl)c(Cl)c1)[C@H]1CCCC[C@H]1N1CCCC1,inactive: 93.6%
18,NC(=O)c1cc([N+](=O)[O-])cc([N+](=O)[O-])c1N,inactive: 94.3%
19,Clc1ccc(Cl)c(NC2=NCC(CBr)S2)c1 (stereo not given),inactive: 105%
20,CN1CCCC(OC(=O)C(c2ccccc2)c2ccccc2)C1 (stereo not given),inactive: 91.3%
21,Cc1ccc(OP(=O)(Nc2nccs2)Oc2ccc(C)cc2)cc1,inactive: 98.2%
22,COc1ccccc1OP(=O)(Nc1ccc(C)cn1)Oc1ccccc1OC,inactive: 98.8%
23,O=[N+]([O-])c1cc([N+](=O)[O-])c(CCN2CCOCC2)c([N+](=O)[O-])c1,inactive: 104%
24,Nc1cccc2ccc([As](=O)(O)O)cc12,inactive: 94.8%
25,CCN(N=Nc1nonc1N)c1nonc1N,inactive: 103%

# Reference: PubChem BioAssay AID2029 (NMMLSC, 2009)
